Test results from PMC5508536 (Bioorganic & medicinal chemistry letters, 2017).

Protein sequences, listed by entry. Tags and fused reporters are not part of them.
UniProt P08912, whole entry: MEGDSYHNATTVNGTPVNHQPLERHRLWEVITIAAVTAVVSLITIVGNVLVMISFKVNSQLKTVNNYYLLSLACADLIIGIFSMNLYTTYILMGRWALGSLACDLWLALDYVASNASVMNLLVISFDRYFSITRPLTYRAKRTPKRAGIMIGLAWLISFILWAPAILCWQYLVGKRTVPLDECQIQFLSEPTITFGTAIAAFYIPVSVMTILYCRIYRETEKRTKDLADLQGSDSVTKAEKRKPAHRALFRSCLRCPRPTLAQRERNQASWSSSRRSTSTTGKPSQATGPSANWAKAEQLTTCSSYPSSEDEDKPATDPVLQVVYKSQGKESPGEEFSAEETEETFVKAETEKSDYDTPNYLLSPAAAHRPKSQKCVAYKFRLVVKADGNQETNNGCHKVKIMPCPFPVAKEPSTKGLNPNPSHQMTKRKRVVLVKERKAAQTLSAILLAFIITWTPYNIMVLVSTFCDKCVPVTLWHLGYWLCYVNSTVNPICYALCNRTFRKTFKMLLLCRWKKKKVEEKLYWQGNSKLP

Target: hM5 (Homo sapiens, UniProt P08912)
Test: hM5 functional assay
Format: cell-based
Conditions: recombinant hM5 cells, in the presence of an ACh EC80

Cc1cc([C@@]23c4ccccc4C(=O)N2CCN3C(=O)c2ccc(F)c(F)c2)ccc1Cl [compound 11, 9b-(4-chloro-3-methyl-phenyl)-1-(3,4-difluorobenzoyl)-2,3-dihydroimidazo[2,1-a]isoindol-5-one]
hM5 pIC50 (±SEM): 5.93±0.02

Cc1cc(C23c4ccccc4C(=O)N2CCN3C(=O)c2ccc(F)c(F)c2)ccc1Cl (centres unmarked) [compound 9, 9b-(4-chloro-3-methyl-phenyl)-1-(3,4-difluorobenzoyl)-2,3-dihydroimidazo[2,1-a]isoindol-5-one]
hM5 pIC50 (±SEM): 5.75±0.03
